Values of other authors as cited in paper PMC6263361 (Molecules, 2011).

Sequences of proteins named here, by UniProt entry; tags and fusion partners are left off. A change or cut given only in a name is not applied to a line headed by its entry.
UniProt P11388: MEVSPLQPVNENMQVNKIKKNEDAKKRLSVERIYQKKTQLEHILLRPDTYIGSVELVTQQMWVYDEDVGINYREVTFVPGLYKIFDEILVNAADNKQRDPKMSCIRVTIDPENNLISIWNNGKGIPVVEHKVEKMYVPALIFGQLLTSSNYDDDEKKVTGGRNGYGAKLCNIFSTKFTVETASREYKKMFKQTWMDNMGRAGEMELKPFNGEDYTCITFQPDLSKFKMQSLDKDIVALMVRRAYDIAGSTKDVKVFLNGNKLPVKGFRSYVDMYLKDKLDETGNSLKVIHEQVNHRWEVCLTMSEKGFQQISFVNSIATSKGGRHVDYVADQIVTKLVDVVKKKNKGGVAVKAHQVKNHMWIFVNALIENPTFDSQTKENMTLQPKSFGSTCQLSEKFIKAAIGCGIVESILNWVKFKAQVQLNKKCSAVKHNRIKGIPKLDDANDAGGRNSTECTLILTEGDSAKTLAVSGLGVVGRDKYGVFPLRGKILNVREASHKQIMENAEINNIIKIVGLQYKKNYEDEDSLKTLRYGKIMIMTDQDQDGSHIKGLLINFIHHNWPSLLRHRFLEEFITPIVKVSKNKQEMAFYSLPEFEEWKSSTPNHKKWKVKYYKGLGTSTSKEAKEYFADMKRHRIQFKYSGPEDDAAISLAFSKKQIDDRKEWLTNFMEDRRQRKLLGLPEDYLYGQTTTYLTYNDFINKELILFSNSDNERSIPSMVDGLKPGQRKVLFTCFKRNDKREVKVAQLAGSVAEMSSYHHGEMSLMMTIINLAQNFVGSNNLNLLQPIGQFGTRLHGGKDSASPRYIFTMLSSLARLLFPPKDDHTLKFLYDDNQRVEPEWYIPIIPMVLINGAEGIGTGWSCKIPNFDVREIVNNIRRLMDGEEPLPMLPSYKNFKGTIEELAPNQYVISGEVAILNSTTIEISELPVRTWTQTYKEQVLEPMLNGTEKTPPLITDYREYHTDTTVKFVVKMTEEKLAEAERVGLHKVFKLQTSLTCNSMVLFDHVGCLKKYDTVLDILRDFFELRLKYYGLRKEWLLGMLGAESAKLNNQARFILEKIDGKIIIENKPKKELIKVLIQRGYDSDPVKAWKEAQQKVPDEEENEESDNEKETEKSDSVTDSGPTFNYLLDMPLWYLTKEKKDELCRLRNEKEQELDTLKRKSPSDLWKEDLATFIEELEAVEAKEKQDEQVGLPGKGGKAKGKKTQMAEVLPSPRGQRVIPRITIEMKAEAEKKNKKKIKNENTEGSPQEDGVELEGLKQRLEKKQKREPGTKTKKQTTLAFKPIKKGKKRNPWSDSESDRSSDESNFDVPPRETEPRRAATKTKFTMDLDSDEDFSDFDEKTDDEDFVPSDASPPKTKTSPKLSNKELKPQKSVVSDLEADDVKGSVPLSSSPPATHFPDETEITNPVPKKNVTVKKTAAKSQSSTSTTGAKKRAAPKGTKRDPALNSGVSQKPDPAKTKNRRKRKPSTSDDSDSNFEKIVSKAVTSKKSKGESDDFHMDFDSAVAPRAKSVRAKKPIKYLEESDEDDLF

Target: T1, top II (Homo sapiens, UniProt P11388)
T1 construct: purchased usb
Set-up: method as in PMID 6092381
Settings: cited from earlier work

For `COc1cc([C@@H]2c3cc4c(cc3[C@@H](O[C@@H]3O[C@@H]5CO[C@@H](C)O[C@H]5[C@H](O)[C@H]3O)[C@H]3COC(=O)[C@H]23)OCO4)cc(OC)c1O` [Etoposide], the “top II inhibitory concentration in vitro” value is listed as 62 µM.
